These results are taken from publication PMC3496871 (Molecular bioSystems, 2012).

The subject of this series is kanamycin A. In words: purified protein, by the assay type. The following applies: 500 μM AcCoA, apparent, pH 7.5, 25.0 °C.

“Eis_Msm (Mycolicibacterium smegmatis MC2 155)”: under “other: Eis_Msm 0.25 μM”, the Michaelis constant (Km) is 665 ± 42 µM, the turnover number (kcat) was 0.36 s⁻¹ and the kcat/Km worked out at 541 M⁻¹ s⁻¹.

Regarding “Eis_Ava (Trichormus variabilis ATCC 29413)”, where the note is “other: Eis_Ava 0.25 μM”, the Km is 1002 ± 43 µM, the kcat amounted to 0.205 s⁻¹ and the kcat/Km was determined as 205 M⁻¹ s⁻¹.

Broadly, the Km is the substrate concentration at which the rate is half of its maximum. What is called kcat is the maximal rate divided by the concentration of active sites. As usually defined, the kcat/Km is the second-order rate constant that governs catalysis at low substrate concentration.
